From patent publication US10407430B2, “Janus kinase 1 selective inhibitor and pharmaceutical use thereof” (YANG JI CHEMICAL CO., LTD., priority 2015, dated 2019) come the findings set out here.

Chains of the proteins cited; added tags and fusions are not shown. Lines headed by an entry give the natural chain unless they say otherwise; changes in a name come on top.
UniProt O60674: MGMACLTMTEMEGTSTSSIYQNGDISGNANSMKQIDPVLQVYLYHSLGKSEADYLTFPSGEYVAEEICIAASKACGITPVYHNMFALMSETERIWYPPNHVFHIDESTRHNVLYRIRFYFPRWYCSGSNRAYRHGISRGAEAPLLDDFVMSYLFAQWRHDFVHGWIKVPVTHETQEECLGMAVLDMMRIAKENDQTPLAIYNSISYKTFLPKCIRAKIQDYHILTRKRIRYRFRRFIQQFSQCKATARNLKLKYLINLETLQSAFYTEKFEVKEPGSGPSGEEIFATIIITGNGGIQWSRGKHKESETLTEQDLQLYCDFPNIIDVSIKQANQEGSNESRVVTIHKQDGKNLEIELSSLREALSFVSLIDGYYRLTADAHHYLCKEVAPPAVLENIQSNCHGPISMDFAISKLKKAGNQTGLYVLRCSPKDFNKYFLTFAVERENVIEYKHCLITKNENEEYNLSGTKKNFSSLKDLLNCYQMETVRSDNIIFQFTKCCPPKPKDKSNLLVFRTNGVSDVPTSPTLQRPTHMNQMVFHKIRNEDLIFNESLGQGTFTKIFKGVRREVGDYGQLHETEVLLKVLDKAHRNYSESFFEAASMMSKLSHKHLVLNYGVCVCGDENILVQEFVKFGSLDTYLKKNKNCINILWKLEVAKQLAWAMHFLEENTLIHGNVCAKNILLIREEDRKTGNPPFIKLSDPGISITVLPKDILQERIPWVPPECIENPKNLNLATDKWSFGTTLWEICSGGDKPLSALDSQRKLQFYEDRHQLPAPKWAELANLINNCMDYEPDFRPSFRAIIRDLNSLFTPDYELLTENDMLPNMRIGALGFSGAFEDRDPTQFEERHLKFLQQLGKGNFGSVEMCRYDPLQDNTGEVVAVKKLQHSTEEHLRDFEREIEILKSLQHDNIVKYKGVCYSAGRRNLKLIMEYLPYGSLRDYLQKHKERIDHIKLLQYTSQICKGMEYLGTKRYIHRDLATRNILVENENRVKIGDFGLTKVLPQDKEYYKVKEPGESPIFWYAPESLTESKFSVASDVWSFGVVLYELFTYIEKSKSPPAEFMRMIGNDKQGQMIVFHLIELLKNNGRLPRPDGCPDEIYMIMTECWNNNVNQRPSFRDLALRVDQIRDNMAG
UniProt P23458: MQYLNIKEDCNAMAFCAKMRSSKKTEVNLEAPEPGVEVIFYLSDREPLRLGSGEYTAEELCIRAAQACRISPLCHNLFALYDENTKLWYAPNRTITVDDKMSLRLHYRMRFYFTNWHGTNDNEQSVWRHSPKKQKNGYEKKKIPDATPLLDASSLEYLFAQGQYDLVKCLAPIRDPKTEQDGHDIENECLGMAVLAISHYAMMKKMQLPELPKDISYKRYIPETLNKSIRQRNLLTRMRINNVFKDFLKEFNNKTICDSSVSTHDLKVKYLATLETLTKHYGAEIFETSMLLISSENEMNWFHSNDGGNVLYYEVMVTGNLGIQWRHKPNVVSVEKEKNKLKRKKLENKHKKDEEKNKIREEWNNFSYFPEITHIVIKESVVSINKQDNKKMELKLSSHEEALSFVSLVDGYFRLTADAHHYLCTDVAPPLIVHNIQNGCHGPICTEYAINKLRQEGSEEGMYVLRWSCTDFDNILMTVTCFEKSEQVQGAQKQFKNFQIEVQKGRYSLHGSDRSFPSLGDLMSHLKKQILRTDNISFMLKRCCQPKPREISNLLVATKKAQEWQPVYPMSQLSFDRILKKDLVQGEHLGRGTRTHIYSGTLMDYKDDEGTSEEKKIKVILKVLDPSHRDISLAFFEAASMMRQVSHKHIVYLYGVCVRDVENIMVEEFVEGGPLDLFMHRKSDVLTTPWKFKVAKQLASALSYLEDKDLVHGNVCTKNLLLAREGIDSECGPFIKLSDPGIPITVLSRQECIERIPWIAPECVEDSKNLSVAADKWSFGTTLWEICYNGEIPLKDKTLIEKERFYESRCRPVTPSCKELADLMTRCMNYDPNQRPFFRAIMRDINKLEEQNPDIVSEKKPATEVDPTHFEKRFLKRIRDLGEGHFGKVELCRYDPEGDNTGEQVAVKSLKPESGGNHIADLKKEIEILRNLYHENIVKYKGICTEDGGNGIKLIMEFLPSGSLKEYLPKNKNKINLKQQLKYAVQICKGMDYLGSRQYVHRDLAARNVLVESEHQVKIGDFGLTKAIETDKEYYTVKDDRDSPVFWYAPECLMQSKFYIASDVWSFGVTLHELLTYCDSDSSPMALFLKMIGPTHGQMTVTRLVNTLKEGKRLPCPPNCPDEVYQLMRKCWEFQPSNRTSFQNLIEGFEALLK

Each structure is given as a SMILES string.

Holding throughout (format): biochemical
For one test, the target named is T1, Human JAK2 (Homo sapiens, UniProt O60674).
T1 construct: purchased Millipore, Germany
The test is described as follows: In-vitro kinase inhibition test, JAK2.

For another test, the target named is T2, Human JAK3 (Homo sapiens, UniProt P52333).
T2 construct: purchased Millipore, Germany
T2 sequence (P52333 1-1124): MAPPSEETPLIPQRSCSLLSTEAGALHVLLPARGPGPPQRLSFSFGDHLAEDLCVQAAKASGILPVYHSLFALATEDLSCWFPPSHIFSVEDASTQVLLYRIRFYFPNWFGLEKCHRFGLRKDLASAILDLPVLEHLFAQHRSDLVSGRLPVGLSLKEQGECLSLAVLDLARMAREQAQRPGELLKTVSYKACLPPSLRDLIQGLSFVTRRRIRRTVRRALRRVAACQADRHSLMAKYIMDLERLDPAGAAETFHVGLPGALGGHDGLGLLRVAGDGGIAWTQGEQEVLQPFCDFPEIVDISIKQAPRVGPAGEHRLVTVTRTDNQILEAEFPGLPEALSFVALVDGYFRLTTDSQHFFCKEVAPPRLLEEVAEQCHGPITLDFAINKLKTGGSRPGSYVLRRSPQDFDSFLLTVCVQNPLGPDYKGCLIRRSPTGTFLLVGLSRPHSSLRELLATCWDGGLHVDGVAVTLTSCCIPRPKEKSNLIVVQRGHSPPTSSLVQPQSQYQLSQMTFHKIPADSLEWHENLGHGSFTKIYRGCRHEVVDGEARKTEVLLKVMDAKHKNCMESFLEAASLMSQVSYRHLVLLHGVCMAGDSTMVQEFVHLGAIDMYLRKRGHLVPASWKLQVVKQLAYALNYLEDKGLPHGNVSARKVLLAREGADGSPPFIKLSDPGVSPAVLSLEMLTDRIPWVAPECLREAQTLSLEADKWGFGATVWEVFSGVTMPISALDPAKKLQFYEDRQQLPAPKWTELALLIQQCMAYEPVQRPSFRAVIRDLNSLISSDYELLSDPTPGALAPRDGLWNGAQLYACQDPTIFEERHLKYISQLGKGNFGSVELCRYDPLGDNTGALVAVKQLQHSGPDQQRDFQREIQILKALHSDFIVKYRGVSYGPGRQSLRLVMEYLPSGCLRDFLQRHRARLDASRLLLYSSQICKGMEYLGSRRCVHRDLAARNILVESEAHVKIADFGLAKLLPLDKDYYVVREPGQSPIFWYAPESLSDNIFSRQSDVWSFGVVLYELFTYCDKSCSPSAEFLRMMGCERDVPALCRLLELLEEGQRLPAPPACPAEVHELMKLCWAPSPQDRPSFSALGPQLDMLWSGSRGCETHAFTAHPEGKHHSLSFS
The test is described as follows: In-vitro kinase inhibition test, JAK3.

The next test concerns the target T3, Human JAK1 (Homo sapiens, UniProt P23458).
T3 construct: purchased Millipore, Germany
The test is described as follows: In-vitro kinase inhibition test, JAK1.

For orientation: IC50 means the concentration that inhibits the measured activity by half. Low readings indicate greater potency, high ones weaker potency. Consider `CN(c1ncnc2[nH]ccc12)[C@@H]1CCN(C(=O)CC#N)C1` [Example 1, (R)-3-(3-(methyl(7H-pyrrolo[2,3-d]pyrimidine-4-yl)amino)pyrrolidine-1-yl)-3-oxopropanenitrile], for which the values for the IC50 against Human JAK2, at Human JAK3 and at Human JAK1 were 0.128 µM, over 1 µM and 0.0188 µM, respectively.
